Measured values from PMC7668297 (Journal of medicinal chemistry, 2020).

Settings: male, C57B6/J, mouse, plasma, ip, 10 mg/kg

tmax: 15 min
Compound: CN(C)c1ccc(Nc2nc(-c3ccncc3)nc3c2CC(N)CC3)cc1 (stereo not shown) [Compound 14, N4-[4-(dimethylamino)phenyl]-2-(4-pyridyl)-5,6,7,8-tetrahydroquinazoline-4,6-diamine]
